Article PMC5837957 (European journal of medicinal chemistry, 2018)
Entries after “also recorded” stand apart in the source; their conditions may differ.

Columns and labels:
[1] = system: H3K4me2 at the promoter of the IGFBP2 gene in NCI-H526 cells; assay: ChIP-qPCR of H3K4me2 at IGFBP2 promoter; format: cell-based; conditions: 100 µM, 48 h
[2] = system: H3K4me2 at the promoter of the FEZ1 gene in NCI-H526 cells; assay: ChIP-qPCR of H3K4me2 at FEZ1 promoter; format: cell-based; conditions: 100 µM, 48 h

## CSCC[C@H](NC(=O)[C@@H](NC(=O)[C@H](CCCNC(=N)N)NC(=O)[C@H](C)N)[C@@H](C)O)C(=O)N[C@H]1CCCCNC(=O)CC[C@@H](C(=O)N[C@@H](C)C(=O)NCC(=O)NCC(=O)N[C@@H](CCCCN)C(=O)N[C@@H](C)C(=O)N2CCC[C@H]2C(=O)N[C@@H](CCCNC(=N)N)C(=O)N[C@@H](CCCCN)C(=O)N[C@@H](CCC(N)=O)C(=O)N[C@@H](CC(C)C)C(=O)N[C@@H](C)C(N)=O)NC(=O)[C@H](CCCCN)NC(=O)[C@H](CCCNC(=N)N)NC(=O)[C@H](C)NC(=O)[C@H]([C@@H](C)O)NC1=O [Compound 16]
[1]
  H3K4me2 levels at the IGFBP2 promoter: smallest change; also recorded: increases H3K4me2 marks
[2]
  H3K4me2 levels at the FEZ1 promoter: smallest change; also recorded: increases H3K4me2 marks
